Source: IntAct's records for PubMed 25605870

B1: Apoptosis-associated speck-like protein containing a CARD (Homo sapiens), Q9ULZ3 (parent)
chain: MGRARDAILDALENLTAEELKKFKLKLLSVPLREGYGRIPRGALLSMDALDLTDKLVSFYLETYGAELTANVLRDMGLQEMAGQLQAATHQGSGAAPAGIQAPPQSAAKPGLHFIDQHRAALIARVTNVEWLLDALYGKVLTDEQYQAVRAEPTNPSKMRKLFSFTPAWNWTCKDLLLQALRESQSYLVEDLERS

Variants of: B1
Conditions: with casp1_human CASP1, P29466

| effect of a mutation on the interaction | Variant |
| --- | --- |
| decreasing interaction strength | Y187F |
| decreasing interaction strength | Y146F;Y187F |
| decreasing interaction strength | Y146F |
